Some results for these compounds are left out of this collection, so the calls shown say nothing about other tests.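 How tested: cells in 96-well plates exposed to compound for 48 hours at five concentrations. Abbreviation: GI50, concentration required for 50% inhibition of growth.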
Experiments:
Experiment in all cases: NCI-60 cell line screen, 48 h; in the data active = GI50 below about 0.43 µM; inactive = the rest
HL-60(TB) leukemia = system: HL-60(TB) leukemia
MCF7 breast = system: MCF7 breast
LOX IMVI melanoma = system: LOX IMVI melanoma
SN12C renal = system: SN12C renal
HCT-116 colon = system: HCT-116 colon
OVCAR-4 ovarian = system: OVCAR-4 ovarian
SNB-75 CNS = system: SNB-75 CNS
HOP-62 NSCLC = system: HOP-62 NSCLC
PC-3 prostate = system: PC-3 prostate
NCI/ADR-RES ovarian = system: NCI/ADR-RES ovarian
U251 CNS = system: U251 CNS
EKVX NSCLC = system: EKVX NSCLC
SK-OV-3 ovarian = system: SK-OV-3 ovarian
SF-295 CNS = system: SF-295 CNS
TK-10 renal = system: TK-10 renal
SK-MEL-5 melanoma = system: SK-MEL-5 melanoma
MOLT-4 leukemia = system: MOLT-4 leukemia
NCI-H23 lung = system: NCI-H23 lung
RPMI-8226 leukemia = system: RPMI-8226 leukemia
MDA-MB-435 = system: MDA-MB-435
SNB-19 CNS = system: SNB-19 CNS
K-562 leukemia = system: K-562 leukemia
HT29 colon = system: HT29 colon
T-47D breast = system: T-47D breast
KM12 colon = system: KM12 colon
COLO 205 colon = system: COLO 205 colon
BT-549 breast = system: BT-549 breast
SK-MEL-28 melanoma = system: SK-MEL-28 melanoma
A549 NSCLC = system: A549 NSCLC
NCI-H226 lung = system: NCI-H226 lung
OVCAR-8 ovarian = system: OVCAR-8 ovarian
MALME-3M melanoma = system: MALME-3M melanoma
HOP-92 NSCLC = system: HOP-92 NSCLC
SF-539 CNS = system: SF-539 CNS
UACC-257 melanoma = system: UACC-257 melanoma
A498 renal = system: A498 renal
MDA-N = system: MDA-N
M14 melanoma = system: M14 melanoma
ACHN renal = system: ACHN renal
NCI-H460 lung = system: NCI-H460 lung
OVCAR-3 ovarian = system: OVCAR-3 ovarian
SW-620 colon = system: SW-620 colon
SR leukemia = system: SR leukemia
UACC-62 melanoma = system: UACC-62 melanoma
HCT-15 colon = system: HCT-15 colon
CAKI-1 renal = system: CAKI-1 renal
MDA-MB-231 breast = system: MDA-MB-231 breast
NCI-H322M lung = system: NCI-H322M lung
SK-MEL-2 melanoma = system: SK-MEL-2 melanoma
HS 578T breast = system: HS 578T breast
OVCAR-5 ovarian = system: OVCAR-5 ovarian
IGROV1 ovarian = system: IGROV1 ovarian
786-0 renal = system: 786-0 renal
NCI-H522 lung = system: NCI-H522 lung
CCRF-CEM leukemia = system: CCRF-CEM leukemia

Measured: GI50

CN1CCC(OC(=O)C(O)(c2ccccc2)C2CCCC2)C1 (stereo not given)
inactive: HL-60(TB) leukemia > 100 µM | MCF7 breast > 100 µM | LOX IMVI melanoma > 100 µM | SN12C renal > 100 µM | HCT-116 colon > 100 µM | OVCAR-4 ovarian > 100 µM | SNB-75 CNS > 100 µM | HOP-62 NSCLC > 100 µM | PC-3 prostate > 100 µM | NCI/ADR-RES ovarian > 100 µM | U251 CNS > 100 µM | EKVX NSCLC > 100 µM | SK-OV-3 ovarian > 100 µM | SF-295 CNS > 100 µM | TK-10 renal > 100 µM | SK-MEL-5 melanoma > 100 µM | MOLT-4 leukemia > 100 µM | NCI-H23 lung > 100 µM | RPMI-8226 leukemia > 100 µM | MDA-MB-435 = > 100 µM | SNB-19 CNS > 100 µM | K-562 leukemia > 100 µM | HT29 colon > 100 µM | T-47D breast > 100 µM | KM12 colon > 100 µM | COLO 205 colon > 100 µM | BT-549 breast > 100 µM | SK-MEL-28 melanoma 92 µM | A549 NSCLC > 100 µM | NCI-H226 lung > 100 µM | OVCAR-8 ovarian > 100 µM | MALME-3M melanoma > 100 µM | HOP-92 NSCLC > 100 µM | SF-539 CNS > 100 µM | UACC-257 melanoma 92 µM | A498 renal 84.8 µM | MDA-N > 100 µM | M14 melanoma > 100 µM | ACHN renal > 100 µM | NCI-H460 lung > 100 µM | OVCAR-3 ovarian > 100 µM | SW-620 colon > 100 µM | SR leukemia > 100 µM | UACC-62 melanoma > 100 µM | HCT-15 colon > 100 µM | CAKI-1 renal > 100 µM | MDA-MB-231 breast > 100 µM | NCI-H322M lung > 100 µM | SK-MEL-2 melanoma > 100 µM | HS 578T breast > 100 µM | OVCAR-5 ovarian > 100 µM | IGROV1 ovarian > 100 µM | 786-0 renal > 100 µM | NCI-H522 lung > 100 µM | CCRF-CEM leukemia > 100 µM

From PubChem BioAssay (NCI)
